Test results reported in patent publication US6140509A (dated 2000).

Key:
[1] = tested on: 5HT2A receptors (cerebral cortex); test: I125-LSD displacement from brain sections, cortex (autoradiography); type: binding, Sprague-Dawley rats; conditions: 1 micromolar compound, 1 nanomolar I125-LSD, 30 minutes, room temperature
[2] = tested on: dopamine D2 receptors (caudate nucleus); test: I125-LSD displacement from brain sections, caudate nucleus (autoradiography); type: binding, Sprague-Dawley rats; conditions: 1 micromolar compound, 1 nanomolar I125-LSD, 30 minutes, room temperature

O=C(CCCN1CCC2(CC1)C(=O)NCN2c1ccccc1)c1ccc(F)cc1 [spiperone]
displacement of I125-LSD from cortex (5HT2A) [1]: displaces the I^125 -LSD from these receptors on both the cortex and the caudate
displacement of I125-LSD from caudate (dopamine D2) [2]: displaces the I^125 -LSD from these receptors on both the cortex and the caudate
